Protein sequences, listed by entry. Tags and fused reporters are not part of them.
UniProt O14842, whole entry: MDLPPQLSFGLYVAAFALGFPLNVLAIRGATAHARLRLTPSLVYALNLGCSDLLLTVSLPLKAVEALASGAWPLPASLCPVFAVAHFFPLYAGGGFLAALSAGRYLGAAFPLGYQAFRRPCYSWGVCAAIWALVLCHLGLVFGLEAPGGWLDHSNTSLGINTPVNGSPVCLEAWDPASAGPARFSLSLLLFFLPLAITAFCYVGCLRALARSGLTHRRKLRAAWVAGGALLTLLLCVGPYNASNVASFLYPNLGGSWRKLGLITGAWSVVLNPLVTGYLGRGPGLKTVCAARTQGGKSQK

According to paper PMC5917010, “Structural basis for GPR40 allosteric agonism and incretin stimulation” (Nature Communications, 2018):

Target: human GPR40 (A2 site) (Homo sapiens, UniProt O14842)
Test: A2 site radioligand binding with [3H]-AM-1638
Details: read-out: Kd of radioligand, saturation analysis (A2 site), tested as the radiolabelled form

SMILES: COc1ccc(F)c(-c2ccc(COc3cccc([C@@H](CC(=O)O)C4CC4)c3)cc2C2=CCCC2(C)C)c1 [AM-1638]
- Kd: 1.2 nM
